According to PubChem BioAssay AID1224863 (Southern Research Institute, 2016):
Only a part is listed here, and it is no random draw. Active and inactive are the calls of the source.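 The calls were made as follows: active = highest signal at least 8 times that of the reference protease inhibitor control at some dose; inactive = the rest.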

Chains of the proteins cited; added tags and fusions are not shown. A line that says so, or that is headed by a name, gives the form on record, which may keep a tag or linker.
UniProt P13569, with tags, fused parts or gaps F508del: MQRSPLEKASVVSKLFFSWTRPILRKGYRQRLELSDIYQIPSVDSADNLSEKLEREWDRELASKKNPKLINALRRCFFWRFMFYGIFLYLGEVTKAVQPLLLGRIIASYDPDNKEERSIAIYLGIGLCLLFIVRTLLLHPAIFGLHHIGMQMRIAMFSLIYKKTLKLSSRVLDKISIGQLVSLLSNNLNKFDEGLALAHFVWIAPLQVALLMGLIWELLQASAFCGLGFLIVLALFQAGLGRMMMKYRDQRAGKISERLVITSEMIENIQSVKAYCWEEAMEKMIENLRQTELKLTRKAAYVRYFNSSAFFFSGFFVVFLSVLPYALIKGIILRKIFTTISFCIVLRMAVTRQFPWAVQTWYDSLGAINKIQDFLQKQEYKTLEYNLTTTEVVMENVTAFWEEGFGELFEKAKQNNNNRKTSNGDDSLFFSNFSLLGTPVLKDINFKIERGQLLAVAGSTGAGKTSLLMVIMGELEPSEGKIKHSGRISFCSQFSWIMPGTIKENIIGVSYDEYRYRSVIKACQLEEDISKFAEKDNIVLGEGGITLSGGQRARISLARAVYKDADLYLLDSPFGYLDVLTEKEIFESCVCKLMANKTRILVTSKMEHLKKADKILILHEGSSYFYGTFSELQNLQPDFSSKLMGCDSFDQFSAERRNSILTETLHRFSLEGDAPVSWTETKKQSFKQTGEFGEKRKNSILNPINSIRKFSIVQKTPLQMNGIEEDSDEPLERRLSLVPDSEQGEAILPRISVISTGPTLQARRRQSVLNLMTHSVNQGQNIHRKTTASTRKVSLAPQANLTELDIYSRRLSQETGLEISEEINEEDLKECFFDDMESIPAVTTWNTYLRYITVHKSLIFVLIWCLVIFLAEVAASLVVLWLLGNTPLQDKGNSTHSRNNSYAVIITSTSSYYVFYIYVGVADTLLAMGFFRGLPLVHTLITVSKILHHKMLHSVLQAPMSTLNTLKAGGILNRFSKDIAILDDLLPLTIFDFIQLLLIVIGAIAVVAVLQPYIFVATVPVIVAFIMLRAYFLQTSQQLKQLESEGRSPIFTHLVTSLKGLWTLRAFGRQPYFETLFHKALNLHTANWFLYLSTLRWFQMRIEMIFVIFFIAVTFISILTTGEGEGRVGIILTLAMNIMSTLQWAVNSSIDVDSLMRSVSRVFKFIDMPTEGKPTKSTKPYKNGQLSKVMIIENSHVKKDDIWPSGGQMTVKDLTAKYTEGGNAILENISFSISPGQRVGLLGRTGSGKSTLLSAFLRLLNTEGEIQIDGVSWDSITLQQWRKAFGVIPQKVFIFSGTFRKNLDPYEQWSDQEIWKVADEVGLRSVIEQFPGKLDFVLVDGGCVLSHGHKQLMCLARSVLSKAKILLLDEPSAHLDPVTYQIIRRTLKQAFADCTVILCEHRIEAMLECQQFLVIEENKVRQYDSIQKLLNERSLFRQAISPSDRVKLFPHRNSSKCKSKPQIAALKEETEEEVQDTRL

biological target: Cystic fibrosis transmembrane conductance regulator (Homo sapiens) (UniProt P13569); assay: compounds raising F508del-CFTR protein level – cell-based, HeLa F508del-CFTR, immunofluorescence, viability, primary screen (AID 1224863); conditions: immunofluorescence total CFTR, 24 h, dose 25, library dosed in µM, hits give high values;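 also: total CFTR protein by anti-CFTR immunofluorescence in fixed cells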

Row | SMILES | max fold increase
1 | CN(CCCl)CCCl | inactive: 3.2
